# Results taken from article PMC4042638 (The Journal of Experimental Medicine, 2014).
# The chains behind the UniProt entries cited, without tags or fusion partners. Residues count along the entry.
# UniProt P02671, 36-866, chain 1 of 3: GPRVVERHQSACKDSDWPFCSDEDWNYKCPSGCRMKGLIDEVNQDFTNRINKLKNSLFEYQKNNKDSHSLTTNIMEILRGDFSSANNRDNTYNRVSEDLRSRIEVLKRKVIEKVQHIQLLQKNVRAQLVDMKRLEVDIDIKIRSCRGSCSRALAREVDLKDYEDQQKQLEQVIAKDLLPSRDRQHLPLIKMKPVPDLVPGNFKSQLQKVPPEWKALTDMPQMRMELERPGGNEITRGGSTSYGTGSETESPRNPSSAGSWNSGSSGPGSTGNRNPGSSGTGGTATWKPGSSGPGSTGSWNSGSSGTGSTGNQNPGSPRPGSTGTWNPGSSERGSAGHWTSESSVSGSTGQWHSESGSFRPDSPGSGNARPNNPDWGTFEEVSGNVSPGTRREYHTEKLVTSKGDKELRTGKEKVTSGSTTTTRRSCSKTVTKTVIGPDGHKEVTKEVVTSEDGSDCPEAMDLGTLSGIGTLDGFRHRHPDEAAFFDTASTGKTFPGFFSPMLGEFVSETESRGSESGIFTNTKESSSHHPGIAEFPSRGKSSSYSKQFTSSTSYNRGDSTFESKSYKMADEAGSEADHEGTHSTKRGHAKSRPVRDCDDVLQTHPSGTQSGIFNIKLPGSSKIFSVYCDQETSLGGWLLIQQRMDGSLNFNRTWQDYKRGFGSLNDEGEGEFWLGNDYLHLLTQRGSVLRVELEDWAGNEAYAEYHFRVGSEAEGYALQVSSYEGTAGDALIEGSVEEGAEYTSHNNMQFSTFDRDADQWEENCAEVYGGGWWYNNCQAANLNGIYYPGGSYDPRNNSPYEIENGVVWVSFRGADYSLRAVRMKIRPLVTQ
# Key:
# [1] = target: fibrinogen (human) (UniProt P02671)
# [2] = target: fibrinogen (human) (UniProt P02671); test: AlphaScreen or HTRF
Substance,affinity relative to Aβ42 (fold lower) [1] [times],affinity relative to the monomer (fold higher) [2] [times]
Aβ40 (from UniProt P05067) (peptide),10,–
oligomeric biotin-LC-Aβ42 (from UniProt P05067) (peptide),–,4
